The results in this text go back to patent US20100021936A1, “Sensor for Spores” (priority 2007, published 2010).

The test system of this assay is germination protease (GPR).

Take `O=C(O)c1cccc(C(=O)O)n1` [Ca-DPA, dipicolinic acid]: the “activation of GPR and hologram degradation” value was “the enzyme is activated and degrades the hologram”.
